Target: human NK2 receptor (Homo sapiens, UniProt P21452)
Assay: Neurokinin A (NKA) Receptor-binding Assay (Test A), 3H-NKA binding to MEL cells expressing the NK2 receptor
Conditions: read-out: IC50 versus ^3 H-NKA binding to MEL; standard compound, initial use of the assay; human NK2 receptor expressed in MEL cells
Excerpt: The selectivity of a Compound for binding at the NK2 receptor may be shown by determining its binding at other receptors using standard assays, for example, one using a tritiated derivative of SP in a tissue preparation selective for NK1 receptors or one using a tritiated derivative of NKB in a tissue preparation selective for NK3 receptors.
It will be appreciated that the implications of a Compound's activity in Test A or Test B is not limited to asthma, but rather, that the test provides evidence of general antagonism of NKA. […] For example, the compound described in Example 4 was typically found to have a Ki of 3.5 nM. In Test B, a pKB of 5 or greater was typically measured for a Compound of the invention. For example, a pKB of 7.7 was measured for the compound described in Example 4. It should be noted that there may not always be a direct correlation between the activities of Compounds measured as Ki values in Test A and the values measured in other assays, such as the pKB measured in Test B.

Chains of the proteins cited; added tags and fusions are not shown.
UniProt P21452, whole entry: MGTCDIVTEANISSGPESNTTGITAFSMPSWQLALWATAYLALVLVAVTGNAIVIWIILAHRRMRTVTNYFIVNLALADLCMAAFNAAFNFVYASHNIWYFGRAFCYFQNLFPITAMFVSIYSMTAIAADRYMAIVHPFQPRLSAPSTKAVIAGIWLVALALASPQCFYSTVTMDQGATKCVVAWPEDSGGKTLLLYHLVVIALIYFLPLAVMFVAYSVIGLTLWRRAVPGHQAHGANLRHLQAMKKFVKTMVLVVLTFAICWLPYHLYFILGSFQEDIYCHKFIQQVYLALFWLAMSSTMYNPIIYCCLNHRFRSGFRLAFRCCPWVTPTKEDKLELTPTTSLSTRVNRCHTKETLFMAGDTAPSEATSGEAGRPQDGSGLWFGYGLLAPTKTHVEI

IC50: 30 nM
Compound: CSCC[C@@H]1NC(=O)[C@H](CC(C)C)NC(=O)CNC(=O)[C@H](Cc2ccccc2)NC(=O)[C@H](Cc2c[nH]c3ccccc23)NC(=O)[C@H](CCC(N)=O)NC1=O
